Assay outcomes (PubChem)
ALR H2O2 inh: inhibitors of human ALR sulfhydryl oxidase, primary screen, biochemical, H2O2 detection, HRP-luminol luminescence, single point | FAD-linked sulfhydryl oxidase ALR (Homo sapiens), P55789 | purified ALR, DTT oxidation | inhibition, % (concentration not given with the values) | actives 3.8% (n = 290,000) | AID 485317, 2010;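 active = mean and each replicate at 75% or more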;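 also: stock transfer was 7.5 nL into about 7.5 µL; 0% = neutral wells and 100% = wells with inactivated enzyme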
UUG fidelity: modulators of start codon recognition fidelity in yeast. activity score, % at 18.7 µM. S. cerevisiae UUG-firefly luciferase reporter, luminescence/redox ratio. 350,000 compounds, 0.13% hits;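 active means replicate mean at a twofold rise or more, about +100% in these data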;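 further: firefly luciferase made from a UUG start codon reports start codon fidelity; reporter light over untreated wells divided by growth signal over untreated wells; some hits fall short of that in this replicate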
HDAC3 inh: inhibitors of human histone deacetylase 3; 0.15% of 320,000 active; recombinant HDAC3, fluorogenic peptide/trypsin coupled, fluorescence; AID 2718; O15379; inhibition, % at 8.3 µM; in the data active means inhibition above about 26%, passing the limit was not always enough; inconclusive means no clear call, values can overlap the other calls
MC4R ag barr: agonists of human melanocortin 4 receptor (MC4R) beta-arrestin; U2OS MC4R beta-arrestin complementation, luminescence; percent of melanotan II response, DMSO zero; activation, % at 8.9 µM; 0.98% of 360,000 active; AID 540308;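 active means activation above a per-plate cutoff, the mean activation of sample wells on that plate plus 3 SD, cut at about 8% in these data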
MC4R antagonist: blocks human MC4R cAMP signaling; MC4R-expressing cells, MTII-stimulated cAMP, LANCE TR-FRET; inhibition, % at 6.5 µM; 0.48% of 360,000 active;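 active means inhibition above its plate's cutoff, the mean of tested wells on that plate plus 3 SD, cut at about 29% in these data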;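 further: 0% = Melanotan II alone and 100% = Melanotan II plus saturating MCL0020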
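Assay system: human MC4R-expressing U2OS cells; reagent: Melanotan II stimulation of cells; dosing: 6.5 µM single dose; timing: compound 30 min, challenge 1 h, detection 1 h; signal: TR-FRET cAMP assay; replicates: one well per compound, no replicates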
NALP1 inh: blocks the NALP1 inflammasome reconstituted in yeast | S. cerevisiae NALP1/ASC/caspase-1 growth, X-gal OD620, 72 h | inhibition, % at 10 µM | 0.61% of 280,000 active | AID 2071; in the data active means inhibition mostly above about 24%, no sharp cut-off; inactive means mostly below about 32%
The depositor's hits bear a star; ? = inconclusive; · = not tested or not shown. Shown are actives, neighbours in structure and some others; about 4.2% of the full set was active somewhere.

ALR H2O2 inh	UUG fidelity	HDAC3 inh	MC4R ag barr	MC4R antagonist	NALP1 inh	smiles
88.8*	-4.1	-4.4	-0.1	2.8	19.9	c1ccc(CCn2nnnc2CN2CCCc3ccccc32)cc1
98.2*	-3.5	5.9	-0.7	1.3	4.1	CCC(C)(C)n1nnnc1CN1CCc2ccccc21
·	19.4	·	·	·	·	CC(C)CC#Cc1ccc2c(c1)O[C@@H](CN(C)Cc1ccccc1F)[C@@H](C)CN([C@@H](C)CO)S2(=O)=O
·	10.5	·	·	·	·	C[C@H](CO)N1C[C@H](C)[C@@H](CN(C)C(=O)Nc2ccccc2)Oc2ccc(NS(=O)(=O)c3ccc(Cl)cc3)cc2CC1=O
98.3*	·	11.1	0.3	2.1	20.5	CCN(CC)S(=O)(=O)c1cccc(C(=O)N/N=C/c2ccc(O)c(O)c2O)c1
86.3*	·	2.9	-1.5	21.4	5.7	CCN(CC)S(=O)(=O)c1cccc(C(=O)N/N=C(\C)c2ccc(O)cc2O)c1
·	10.4	·	·	·	·	O=C(C[C@@H]1CC[C@H]2[C@@H](COC[C@@H](O)CN2C(=O)c2ccncc2)O1)NC1Cc2ccccc2C1
·	-15.3	·	0.9	-0.9	·	O=C1NC(Cc2ccccc2)C(=O)N1Cc1ccccc1 (stereo not given)
97.9*	·	1.3	2.7	-18.7	-0.6	O=c1ccsn1Cc1ccccc1
·	-16.9	·	·	·	·	C[C@@H]1CCCCO[C@H](CN(C)C)[C@@H](C)CN([C@@H](C)CO)C(=O)c2cc(NS(=O)(=O)c3cccs3)ccc2O1
11.9	·	?	-1.7	-7.5	40.2	CCN1C/C(=C/c2ccc(N3CCOCC3)cc2)C(=O)/C(=C/c2ccc(N3CCOCC3)cc2)C1
78.5*	-1.1	-2.2	-2.8	-7.3	44.9	CN1C/C(=C\c2ccc(N3CCOCC3)cc2)C(=O)/C(=C/c2ccc(N3CCOCC3)cc2)C1
-35.4	-11.1	3.9	0.4	4.1	65.7*	CN1C/C(=C/c2ccncc2)C(=O)/C(=C/c2ccncc2)C1
34.0	-8.7	?	0.3	-13.8	28.3	CCCNc1c(N)c(=O)oc2ccccc12
60.4	-24.9	5.1	-0.1	-0.3	-2.7	CCNc1c(N)c(=O)oc2ccccc12
99.0*	-16.1	1.6	-1.6	-4.5	-3.4	CC(C)CNc1c(N)c(=O)oc2ccccc12
98.5*	-5.7	4.6	-0.8	-17.8	42.9	Nc1c(Nc2ccccc2)c2ccccc2oc1=O
·	5.7	·	·	·	·	COc1ccc(NC(=O)N(C)C[C@H]2Oc3ccc(NC(=O)Nc4ccc5c(c4)OCO5)cc3CC(=O)N([C@@H](C)CO)C[C@@H]2C)cc1
-1.2	2.8	-1.6	-2.3	5.2	43.7*	O=C1C2CCCN2C(c2ccc(F)c(F)c2)N1c1cccc(Cl)c1 (stereo not given)
12.5	-6.4	0.2	-0.5	-0.3	10.3	O=C1C2CCCN2C(c2ccccc2)N1c1cccc(Cl)c1 (stereo not given)
98.7*	-52.3	-4.1	-0.2	9.4	3.5	CC(=O)/C(=N\Nc1ccc(C)cc1)N1CCOCC1
97.9*	·	5.6	-1.4	-1.6	8.0	COc1cccc(/C=C/c2[nH]c(=O)[nH]c(=O)c2[N+](=O)[O-])c1O
97.5*	-5.2	6.7	-2.0	15.3	7.0	CCOC(=O)COc1ccc(Br)cc1/C=C/c1[nH]c(=O)[nH]c(=O)c1[N+](=O)[O-]
·	·	3.1	1.1	22.6	27.3	CCOC(=O)COc1ccc(Br)cc1/C=C\c1[nH]c(=O)[nH]c(=O)c1[N+](=O)[O-]
95.5*	18.0	5.8	-1.6	-26.0	7.5	COc1cc(/C=C/c2[nH]c(=O)[nH]c(=O)c2[N+](=O)[O-])cc(OC)c1O
·	8.6	·	·	·	·	CC(C)C#Cc1cnc2c(c1)C(=O)N([C@H](C)CO)C[C@H](C)[C@@H](CN(C)C(=O)c1ccccn1)O2
·	9.0	·	·	·	·	C[C@H]1CN([C@@H](C)CO)C(=O)c2cc(C#Cc3ccncc3)cnc2O[C@@H]1CN(C)C(=O)c1ccccc1F
99.0*	-18.0	4.2	0.1	-8.3	2.3	OC(CN1CCCCCC1)CN(c1ccccc1)c1ccccc1 (stereo not given)
-3.4	·	5.8	-0.6	-3.3	-0.9	OC(COC(c1ccccc1)c1ccccc1)CN1CCOCC1 (stereo not given)
-6.9	-13.9	-4.3	-1.4	0.8	18.1	Cc1ccccc1S(=O)(=O)N(CC(O)CN1CCCCC1)c1ccccc1 (stereo not given)
99.1*	-6.7	3.8	-0.4	3.7	-1.2	OC(CN1CCOCC1)CN(c1ccccc1)c1ccccc1 (stereo not given)
98.3*	-15.4	-0.7	-0.4	1.5	10.1	OC(CN1CCCCC1)CN(c1ccccc1)c1ccccc1 (stereo not given)
·	3.5	·	·	·	·	COc1ccc(S(=O)(=O)Nc2cccc3c2O[C@H](CN(C)C(=O)NC(C)C)[C@@H](C)CN([C@@H](C)CO)C3=O)cc1
98.7*	-15.7	-0.2	-1.1	-0.3	·	Cc1nnc(SCC(=O)Nc2ccc(N3CCOCC3)cc2)n1Cc1ccccc1
98.9*	-12.5	-0.5	0.6	11.9	-8.3	CCn1c(SCC(=O)Nc2ccc(N(C)C)cc2)nnc1C1CC1
-9.4	-9.4	4.6	-0.3	4.7	23.8	CCn1c(SCC(=O)Nc2ccc(Cl)cc2)nnc1C1CC1
84.8*	·	4.1	0.2	2.2	21.8	Cc1nnc(SCC(=O)c2ccccc2)n1Cc1ccccc1
-10.3	-11.6	-2.3	2.9	20.4	1.8	CCn1c(SCC(=O)Nc2ccc(NC(C)=O)cc2)nnc1C1CC1
-2.0	-13.4	-3.0	0.0	-3.2	·	Cc1nnc(SCC(=O)NNC(=O)c2ccccc2)n1Cc1ccccc1
·	4.5	·	-4.2	1.3	·	O=C(CSc1n[nH]c(=O)n1Cc1ccccc1)Nc1ccc(N2CCOCC2)cc1
99.2*	-13.0	-6.7	-1.3	-0.6	·	CCn1c(SCC(=O)Nc2ccc(N3CCOCC3)cc2)nnc1C1CC1
·	-8.0	·	·	·	·	O=C(C[C@@H]1C[C@@H]2c3cc(NC(=O)Nc4ccc(C(F)(F)F)cc4)ccc3O[C@@H]2[C@H](CO)O1)NC1CCCCC1
·	-0.5	·	·	·	·	CC(C)NC(=O)N(C)C[C@H]1Oc2cc(C#Cc3ccc(F)cc3)ccc2S(=O)(=O)N([C@H](C)CO)C[C@@H]1C
·	-6.4	·	·	·	·	C[C@@H]1CN([C@H](C)CO)C(=O)Cc2cc(NC(=O)C3CC3)ccc2O[C@@H]1CN(C)Cc1ccc(-c2ccccc2)cc1
·	1.1	·	·	·	·	C[C@@H]1CCCCO[C@H](CN(C)C(=O)Cc2ccccc2)[C@H](C)CN([C@H](C)CO)C(=O)c2cc(NC(=O)c3ccccc3)ccc2O1
38.5	-4.9	1.9	-1.6	-2.8	·	CCN(CC)S(=O)(=O)c1cc(NC(=O)CSc2nnc(N)s2)ccc1C
98.7*	-9.6	2.6	4.0	4.2	10.9	CCN(CC)S(=O)(=O)c1cc(NC(=O)CSc2nc3c(cc2C#N)C(=O)CC(C)(C)C3)ccc1C

Five records drawn at random from those above:
ALR H2O2 inh	UUG fidelity	HDAC3 inh	MC4R ag barr	MC4R antagonist	NALP1 inh	smiles
99.1*	-6.7	3.8	-0.4	3.7	-1.2	OC(CN1CCOCC1)CN(c1ccccc1)c1ccccc1 (stereo not given)
·	3.5	·	·	·	·	COc1ccc(S(=O)(=O)Nc2cccc3c2O[C@H](CN(C)C(=O)NC(C)C)[C@@H](C)CN([C@@H](C)CO)C3=O)cc1
-10.3	-11.6	-2.3	2.9	20.4	1.8	CCn1c(SCC(=O)Nc2ccc(NC(C)=O)cc2)nnc1C1CC1
38.5	-4.9	1.9	-1.6	-2.8	·	CCN(CC)S(=O)(=O)c1cc(NC(=O)CSc2nnc(N)s2)ccc1C
98.7*	-15.7	-0.2	-1.1	-0.3	·	Cc1nnc(SCC(=O)Nc2ccc(N3CCOCC3)cc2)n1Cc1ccccc1
